The target of the assay is T1, AChE (Electrophorus electricus, UniProt O42275).
T1 construct: purchased
The format is biochemical. The note with it: read-out: IC50 (AChE inhibition); mean ± SD.

Chains of the proteins cited; added tags and fusions are not shown. Residues count along the entry.
UniProt O42275, 24-633: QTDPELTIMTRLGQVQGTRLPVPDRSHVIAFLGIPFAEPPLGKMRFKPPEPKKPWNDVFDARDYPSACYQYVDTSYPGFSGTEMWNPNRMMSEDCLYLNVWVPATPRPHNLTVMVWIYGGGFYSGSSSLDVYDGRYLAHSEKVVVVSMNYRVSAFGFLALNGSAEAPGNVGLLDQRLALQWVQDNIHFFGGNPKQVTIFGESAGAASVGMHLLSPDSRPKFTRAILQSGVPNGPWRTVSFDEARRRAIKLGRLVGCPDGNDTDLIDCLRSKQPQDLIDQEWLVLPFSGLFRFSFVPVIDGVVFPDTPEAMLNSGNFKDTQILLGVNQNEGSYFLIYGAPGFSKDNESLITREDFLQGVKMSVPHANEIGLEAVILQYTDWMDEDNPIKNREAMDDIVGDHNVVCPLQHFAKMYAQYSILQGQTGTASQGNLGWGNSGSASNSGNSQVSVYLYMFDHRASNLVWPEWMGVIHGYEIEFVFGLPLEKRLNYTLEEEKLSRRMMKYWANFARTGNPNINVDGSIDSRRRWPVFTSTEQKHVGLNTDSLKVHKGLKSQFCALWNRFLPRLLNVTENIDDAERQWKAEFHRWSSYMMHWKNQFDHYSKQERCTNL

The IC50 is the concentration that inhibits the measured activity by half.

Turning to phillyrin [Compound 4], the IC50 was 279 ± 11 nM.

The values are drawn from PMC10820861, “Furofuranoid-Type Lignans and Related Phenolics from Anisacanthus virgularis (Salisb.) Nees with Promising Anticholinesterase and Anti-Ageing Properties: A Study Supported by Molecular Modelling” (Plants, 2024).
